scFv variants of Ab-14 (heavy chain) against a SARS-CoV-2 spike peptide

All variants were tested on one target, the spike HR2 peptide PDVDLGDISGINAS (SARS-CoV-2).

Parent: Ab-14, a human scFv built as VH, a 15-residue (Gly4Ser)3 linker, VL. Only the CDRs of the heavy chain vary.
VH: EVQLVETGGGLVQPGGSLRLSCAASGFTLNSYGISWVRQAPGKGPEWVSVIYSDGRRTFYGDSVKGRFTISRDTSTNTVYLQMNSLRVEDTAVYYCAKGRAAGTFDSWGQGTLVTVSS
VL: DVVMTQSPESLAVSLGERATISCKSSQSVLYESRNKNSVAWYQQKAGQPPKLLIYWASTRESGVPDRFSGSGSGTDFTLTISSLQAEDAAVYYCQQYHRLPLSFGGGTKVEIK

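The parent was found by panning a naive human phage display library on the peptide. These sequences belong to a second round, designed from the earlier measurements on random variants of the parent. Their group label is 14H_En_Gen (En: ensemble of fine-tuned language models; Gen: genetic algorithm). The assay is AlphaSeq: two haploid yeast populations carry antibody and antigen on their surface. The frequency of each diploid, read from paired DNA barcodes, reflects how well the two displayed proteins bind. Read counts were normalised to the haploid input and turned into Kd by a linear fit to BCL2-family pairs of known affinity, for each replicate. Each pool was mated in six replicate cultures.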

Each variant is given by its three heavy chain CDRs, as the data file delimits them; those of the parent are GFTLNSYGIS, VIYSDGRRTFYGDSVK, GRAAGTFDS.
The read-out is the apparent dissociation constant on a log10 scale (nM): the lower, the stronger.
"n.d." means that the variant was in the library but no mating with the target was seen in that replicate; the authors take this as a sign of poor binding, and no number exists.
The authors' rule: three or more of the six replicates give a measured affinity, fewer mean a poor binder.

CDR-H1	CDR-H2	CDR-H3	replicates, log10 nM	control signals
GFDLNEYGIS	VIYADGMRTFYADDVK	GNQAGTFDV	-0.62 -0.57 -0.37 -0.53 -0.54 -0.43	0 of 18
GFDLDEYGIS	VIYADGQRTFYADSVK	GNVAGTFDV	-0.24 -0.07 -0.49 -0.67 -0.36 -0.03	0 of 18
GFDLDEYGIS	VIYADGMRTAYADSVK	GNEAGTFDV	-0.10 -0.18 -0.28 -0.40 -0.25 0.00	1 of 18 (1.82)
GFDLDEYGIS	VIYADGQRTAYADSVK	GQNAGTFDT	-0.14 -0.47 -0.26 -0.30 -0.45 -0.44	0 of 18
GFDLNEYGIS	VIYADGKRTAYSDSVK	GETAGTFDQ	-0.51 -0.72 -0.87 -0.58 0.04 -0.19	0 of 18
GFDLNEYGIS	VIYADGMRTAYSDDVK	GTNAGTFDV	-0.56 -0.56 -0.63 -0.67 -0.57 -0.23	0 of 18
GFDLNEYGIS	VIYADGRRTAYADNVK	GNQAGTFDV	-0.22 -0.57 -0.40 -0.53 -0.23 -0.23	0 of 18
GFDLNEYGIS	VIYADGVRTAYADSVK	GNNAGTFDQ	-0.48 -1.10 -0.07 -0.45 -0.86 0.58	0 of 18
GFDLNEYGIS	VIYADGMRTSYADSVK	GENAGTFDT	0.06 0.62 -0.20 0.38 0.58 0.47	0 of 18
GFDLNEYGIS	VIYADGMRTAYSDDVK	GNQAGTFDL	0.12 -0.21 0.06 -0.11 0.21 -0.04	0 of 18
GFDLNEYGIS	VIYADGVRTAYADSVK	GNQAGTFDQ	-0.85 -0.97 -1.02 -1.15 -1.14 -0.62	1 of 18 (2.13)
GFDLDEYGIS	VIYADGMRTFYADSVK	GNEAGTFDV	-0.24 -0.12 -0.05 -0.27 -0.16 -0.25	0 of 18
GFDLDEYGIS	VIYADGKRTAYVDSVK	GNTAGTFDV	-0.51 -0.69 -1.09 -1.06 -0.72 -0.63	0 of 18
GFDLNEYGIS	VIYADGMRTFYTDSVK	GQNAGTFDV	-0.17 -0.40 -0.40 -0.52 -0.53 -0.52	0 of 18
GFDLNEYGIS	VIYADGQRTFYADSVK	GNNAGTFDV	-0.20 -0.49 -0.53 -0.38 -0.48 -0.22	0 of 18
GFDLEEYGIS	VIYADGMRTAYADSVK	GEVAGTFDL	-0.72 0.01 -0.63 -0.31 -0.49 -0.09	0 of 18
GFDLNEYGIS	VIYADGLRTYYADSVK	GNVAGTFDV	-0.47 -0.18 -0.56 -0.77 -0.44 -0.42	1 of 18 (1.93)
GFDLNEYGIS	VIYADGMRTVYADSVK	GNTAGTFDQ	-1.30 -1.57 -1.04 -1.46 -1.61 -1.47	0 of 18
GFDLDEYGIS	VIYADGMRTAYSDNVK	GNQAGTFDV	0.11 0.24 0.25 0.05 0.38 0.00	0 of 18
GFDLNEYGIS	VIYADGMRSAYADSVK	GNNAGTFDV	-0.72 -0.15 -0.74 -0.48 -0.87 -0.19	1 of 18 (1.24)
GFDLNEYGIS	VIYADGMRTFYADDVK	GETAGTFDV	-0.21 -0.12 -0.43 -0.60 -0.40 0.48	0 of 18
GFDLSEYGIS	VIYADGMRTAYSDSVK	GNVAGTFDV	1.27 n.d. n.d. 1.60 1.25 1.04	0 of 18
GFDLNEYGIS	VIYADGMRKAYADDVK	GNVAGTFDL	0.55 -0.02 0.08 0.14 -0.39 0.21	0 of 18
GFDLNEYGIS	VIYADGMRTAYVDDVK	GNVAGTFDI	0.93 0.16 0.86 0.58 0.26 1.69	0 of 18
GFDLNEYGIS	VIYADGMRTFYADSVK	GNVAGTFDM	-0.37 0.28 -0.28 -0.38 -0.13 -0.25	0 of 18
GFDLNEYGIS	VIYADGRRTAYSDDVK	GNVAGTFDV	-0.42 -0.42 -0.49 -0.53 -0.51 -0.47	0 of 18
GFDLDEYGIS	VIYADGMRQAYADSVK	GNVAGTFDV	-0.52 -0.46 -0.35 -0.39 -0.15 -0.46	0 of 18
GFDLDEYGIS	VIYADGSRTAYADNVK	GENAGTFDV	-0.03 0.09 0.36 0.31 0.00 0.46	0 of 18
GFDLNEYGIS	VIYADGMRTAYSDDVK	GENAGTFDV	n.d. n.d. n.d. 2.08 n.d. n.d.	0 of 18
GFDLNEYGIS	VIYADGVRTAYADSVK	GENAGTFDV	0.06 0.42 0.32 0.07 -0.17 -0.08	1 of 18 (0.62)
GFDLNEYGIS	VIYADGMRTSYADSVK	GETAGTFDQ	0.20 0.05 -0.13 -0.14 -0.35 -0.09	0 of 18
GFDLNEYGIS	VIYADGMRTAYSDSVK	GNHAGTFDI	-0.81 -0.29 -0.83 -0.74 -1.04 -0.43	0 of 18
GFDLNEYGIS	VIYADGMRTSYADSVK	GQNAGTFDL	-0.06 -0.43 -0.31 -0.57 -0.38 -0.41	0 of 18
GFDLDEYGIS	VIYADGMRTVYADSVK	GENAGTFDQ	-0.75 -0.09 -0.92 -1.10 -1.05 -0.84	0 of 18
GFDLDEYGIS	VIYADGKRTAYADNVK	GNNAGTFDV	-0.52 -0.13 -0.15 -0.50 -0.21 -0.11	0 of 18
GFDLNEYGIS	VIYADGMRTVYADDVK	GNVAGTFDI	-0.74 -0.86 -0.87 -0.73 -0.43 -1.13	0 of 18
GFDLNEYGIS	VIYADGVRTAYADDVK	GNVAGTFDA	-0.08 0.02 0.39 -0.28 0.21 0.21	0 of 18
GFDLNEYGIS	VIYADGVRTAYANSVK	GNNAGTFDV	0.14 -1.24 -0.66 -1.30 -1.52 -0.34	0 of 18
GFNLDEYGIS	VIYADGMRTAYSDSVK	GNVAGTFDI	-0.25 -0.48 -0.61 -0.75 -0.53 -0.49	0 of 18
GFDLNEYGIS	VIYADGVRTFYADDVK	GENAGTFDI	-0.11 -0.10 0.14 -0.17 -0.59 0.56	0 of 18
GFDLDEYGIS	VIYADGMRTAYADNVK	GEVAGTFDV	0.36 -0.54 -0.21 -0.50 -0.63 -0.72	0 of 18
GFDLNEYGIS	VIYADGMRTFYADSVK	GNVAGTFDA	-0.43 -0.03 -0.43 -0.54 -0.51 -0.24	0 of 18
GFDLNEYGIS	VIYADGKRTAYADSVK	GENAGTFDM	-0.17 -0.35 0.20 -0.11 1.10 0.87	0 of 18

Extract of 5 entries:

CDR-H1,CDR-H2,CDR-H3,"replicates, log10 nM",control signals
GFDLNEYGIS,VIYADGMRTSYADSVK,GENAGTFDT,0.06 0.62 -0.20 0.38 0.58 0.47,0 of 18
GFDLNEYGIS,VIYADGKRTAYADSVK,GENAGTFDM,-0.17 -0.35 0.20 -0.11 1.10 0.87,0 of 18
GFDLNEYGIS,VIYADGQRTFYADSVK,GNNAGTFDV,-0.20 -0.49 -0.53 -0.38 -0.48 -0.22,0 of 18
GFDLDEYGIS,VIYADGMRTAYADSVK,GNEAGTFDV,-0.10 -0.18 -0.28 -0.40 -0.25 0.00,1 of 18 (1.82)
GFDLNEYGIS,VIYADGLRTYYADSVK,GNVAGTFDV,-0.47 -0.18 -0.56 -0.77 -0.44 -0.42,1 of 18 (1.93)

Values of this round are not directly comparable with the first-round values of the same sequences.
As a blank, each scFv also met three strains without target: over all heavy chain designs, 1% of these pairings were detected, typically at 2.08 and seldom below 0.84. The control count says in how many pairings with the empty strains this scFv gave a signal, with their mean in brackets.

The measurements come from Li et al. 2023 (doi:10.1038/s41467-023-39022-2) through the FLAb antibody collection.